Test results reported in PMC6156125, “Chemistry and Hypoglycemic Activity of GPR119 Agonist ZB-16” (Frontiers in Endocrinology, 2018).

Protein sequences, listed by entry. Tags and fused reporters are not part of them.
UniProt Q8TDV5, whole entry: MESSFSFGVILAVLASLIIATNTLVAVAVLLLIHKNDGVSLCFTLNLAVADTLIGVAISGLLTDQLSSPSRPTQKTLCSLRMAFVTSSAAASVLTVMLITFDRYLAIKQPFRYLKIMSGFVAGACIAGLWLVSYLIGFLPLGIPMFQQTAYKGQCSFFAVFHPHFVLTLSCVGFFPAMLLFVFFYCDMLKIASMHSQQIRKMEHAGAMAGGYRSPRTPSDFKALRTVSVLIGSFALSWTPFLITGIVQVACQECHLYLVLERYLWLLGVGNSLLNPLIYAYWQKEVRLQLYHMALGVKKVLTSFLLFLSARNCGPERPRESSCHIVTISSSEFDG

molecular target: human GPR119 (hGPR119) (Homo sapiens, UniProt Q8TDV5); assay: Specific (agonistic) activity in vitro, cAMP increase (Lance Ultra cAMP kit) in CHO-K1 cells expressing hGPR119

Going from `O=C1CSC2(C(=O)Nc3ccccc32)N1c1cccc(C(F)(F)F)c1` (stereo not shown) to `CCCCNC(=O)c1ccc2c(c1)N(CC)C(=O)c1ccccc1S2(=O)=O`, the EC50 rises from 0.537 µM to 3.1 µM (5.8-fold).

`CCN1C(=O)c2ccccc2S(=O)(=O)c2ccc(C(=O)NCCc3ccc(OC)c(OC)c3)cc21` and `CCN(CCNC(=O)c1ccc2c(c1)N(CC)C(=O)c1ccccc1S2(=O)=O)c1ccccc1` are within 1.5-fold of each other in EC50: 2.2 µM for the first, 3.3 µM for the second.

Compared with `CCOC(=O)N1CCC(NC(=O)c2ccc3c(c2)N(CC)C(=O)c2ccccc2S3(=O)=O)CC1`, `CCN1C(=O)c2ccccc2S(=O)(=O)c2ccc(C(=O)N3CCC(Cc4ccccc4)CC3)cc21` is 8-fold lower in EC50: 19.4 µM for the first, 2.42 µM for the second.

First: NC(=O)c1c(NC(=O)C2CCCN(C(=O)c3ccc4c(c3)OCCO4)C2)sc2c1CCCC2 (stereo not shown)
Second: CCN1C(=O)c2ccccc2S(=O)(=O)c2ccc(C(=O)N3CCN(Cc4ccccc4)CC3)cc21
The EC50 of the first is 4.3-fold lower: 2.75 µM for the first, 11.7 µM for the second.

Compared with `CCc1ccc(NC(=O)NC2=C(C#N)C(CC)(CC)Cc3ccccc32)cc1`, `O=C(NCCc1ccccc1)c1nnc(C(Nc2ccccc2)c2ccc(Cl)cc2)o1` (stereo not shown) is 6.4-fold higher in EC50: 0.431 µM for the first, 2.74 µM for the second. The first is the more potent here.
